{"source": "patent US4965259A", "about": "“Dioxazocine derivatives compositions and methods containing them having antidepressive, spasmolytic, anticonvulsive, and antiarrhythmic properties” (EGIS Gyogyszergyar, priority 1987, dated 1990)", "system": "electroshock provoked by electric current", "assay": "Anticonvulsive activity on mice (inhibition of electroshock)", "type": "in vivo", "conditions": "p.o.", "description": "The tests were carried out according to the method of Swinyard et al. [I. Pharmacol. Exp. Ther., 106, 319-330 (1952)] which method is based on the inhibition of electroshock provoked by electric current on mice. The compounds to be tested were administered perorally. One hour later electroshocks were given by using corneal electrodes. The frequency of the electroshocks was 50 Hz, the current intensity 45 mA and the duration 0.4 sec. The full inhibition of the tonic-extensoric spasm on the hind limbs was considered as the criterium of the anticonvulsive activity. As reference compound phenobarbital, trimetadone and traboxopin were used.", "data": [{"compound": "CN1C(=O)OC(C)(C)C1=O", "note": "[trimetadione, 3,5,5-trimethyl-oxazolidine-2,4-dione]", "values": [{"measurement": "Therapeutical index LD50/ED50", "result": 4.3}]}]}
